# Binding of CDR-mutated scFvs to a peptide of the spike HR2 region

Data: MIT Lincoln Laboratory AlphaSeq set, Li et al. 2023, doi:10.1038/s41467-023-39022-2, as distributed in FLAb.

Target: peptide PDVDLGDISGINAS, taken from heptad repeat 2 (HR2) of SARS-CoV-2 spike.

The variants keep the heavy chain, the linker and the frameworks of Ab-14 (scFv order VH, three GGGGS repeats, VL).
VH: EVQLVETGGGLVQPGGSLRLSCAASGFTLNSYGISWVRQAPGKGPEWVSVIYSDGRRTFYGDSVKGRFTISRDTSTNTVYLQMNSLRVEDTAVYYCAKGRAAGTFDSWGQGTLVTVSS
VL: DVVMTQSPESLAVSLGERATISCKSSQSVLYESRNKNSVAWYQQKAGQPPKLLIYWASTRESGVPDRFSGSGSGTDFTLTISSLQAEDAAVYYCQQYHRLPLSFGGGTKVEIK

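The parent was found by panning a naive human phage display library on the peptide. The variants were designed computationally from a first round of random CDR variants and then made and measured. Group labels follow the data file (En: ensemble of fine-tuned language models; GP: Gaussian process model; HC: hill climbing; Gen: genetic algorithm; Gibbs: Gibbs sampling; a sequence that several methods proposed may carry one label only). AlphaSeq pools MATa yeast showing the antibodies with MATalpha yeast showing the peptide. After mating in shaken culture at 30 °C for 16 h, diploids were selected and their barcode pairs sequenced. Scores were corrected for input abundance and mapped to Kd with protein pairs of known affinity run in the same pool. There are six technical replicates.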

The parent's light chain CDRs are KSSQSVLYESRNKNSVA, WASTRES, QQYHRLPLS; each variant's own CDRs replace them letter for letter. Variants here have more than six changes. The Kd shown is the geometric mean over detected replicates; a lower Kd is a better binder. A pair that was not seen in any replicate is written "no signal"; this usually means weak binding, but a binder can also be missed. Nonspecific signal, from three strains lacking the peptide, appeared in 4% of pairings of all light chain designs, centred on 430 nM (5% of these signals below 38 nM); values are not corrected for it. The authors averaged sequences with at least three values out of six and counted those with two or fewer as poor binders. The parent sequence was in this pool as ten entries: three were never detected, three once, and four in most replicates, with averages from 2.2 nM to 240 nM. The range of this assay differs from that of the first round, and the authors advise against merging the two.

* KLSQSHLYESRNSNNVA / MASYRMV / QQYHRLPLS [GP_Gibbs] -> 1.4 nM (6 of 6 replicates)
* MFSQLTYMGSRARNAVA / QAETRVN / QQYHHLPLF [En_HC] -> 14 nM (6 of 6 replicates)
* KIGATLNFLEHKQNNVA / DLVMREN / QQYHRLPLS [En_Gen] -> 17 nM (3 of 6 replicates)
* QYSMNLEIYDQEQGNVA / HGEMRTE / QQYHKLPLS [En_Gibbs] -> 7.8 nM (6 of 6 replicates)
* KISMMYRFEQTASNNIA / EMTMRAE / QSYHRLPLS [En_HC] -> 16 nM (6 of 6 replicates)
* SLPNARPDGYLQKNNVA / EGTERSD / QQYMRLPLF [En_Gibbs] -> 710 pM (6 of 6 replicates)
* KIGMTLNTLYEKANNVA / DLVEREN / QQYFRLPLS [En_Gen] -> 650 pM (6 of 6 replicates)
* TISQMTSLFSQSINNVA / EVSMREK / QQYDRLPLT [En_Gen] -> 5.2 nM (6 of 6 replicates)
* KFMQSVLYESRNLNNVA / HGSTRSS / QQYHRLPLS [GP_Gibbs] -> 1.3 nM (6 of 6 replicates)
* TISQSAQEESHNKNSVA / DLSVRGS / QQYHRLPLS [En_HC] -> 1.6 nM (6 of 6 replicates)
* TISQVLNTLTRHGNNVA / DLAERED / QQYFRLPLS [En_Gen] -> 5.8 nM (6 of 6 replicates)
* TISTLMRYETSLKNAIA / NAQTREQ / QQYHRLPIS [En_HC] -> 6.8 nM (6 of 6 replicates)
* KLDQKNRWNGMANYNVA / DSNERVD / QQYHRLPLI [En_Gibbs] -> 7.1 nM (6 of 6 replicates)
* MLLQSTMYGERNRNSVA / HASTREN / QQYHRLPLI [En_HC] -> 8.4 nM (6 of 6 replicates)
* KVDQWEQYGSRNKNSVA / SASQRCS / QQYHRLPLS [GP_Gibbs] -> 970 pM (6 of 6 replicates)
* KLYFNVGTMSHNAQSIA / DMERRED / QQYHRLPLS [En_HC] -> 2.1 nM (6 of 6 replicates)
* KLSQSELYESRCHNNVA / NASQRES / QQYHRLPLS [GP_Gibbs] -> 2.7 nM (6 of 6 replicates)
* HISDLIMVASRNKNSVA / DESTRPD / QQYHRLPLS [En_HC] -> 830 pM (6 of 6 replicates)
* SIQNLGMVNSVWKNSIA / DVNILED / QQYWRLPLL [En_Gibbs] -> 1.3 nM (6 of 6 replicates)
* IMTGIIEEGSNNKNNIA / ENKERFQ / QQYWQLPLS [En_Gibbs] -> 3.4 nM (6 of 6 replicates)
* KLTSVTGTEKVRGNNVA / EMETREE / QQYNRLPLS [En_Gen] -> 3.1 nM (5 of 6 replicates)
* KISQMVKVGMTHGNSIA / EEAKRAD / QQYHRLPLA [En_Gen] -> 5.8 nM (6 of 6 replicates)
* ALGDVTRMESNKKNSIA / DMSNRMS / QQYHRLPLS [En_HC] -> 1.2 nM (6 of 6 replicates)
* KLSATYRYESQNKNSIA / EMSTRAS / QCYHRLPLS [En_HC] -> 35 nM (6 of 6 replicates)
* KLYDDAASRVQDAENIA / EKTESYQ / QQYHRLPLS [En_Gibbs] -> no signal (0 of 6 replicates)
* RLTQQMAGFNRHANNVA / STAVRQW / QQYARLPFI [En_Gibbs] -> 5.1 nM (6 of 6 replicates)
* KLGAWMYWPTEAKYAIA / QDEMRVH / QQYDRLPLT [En_Gibbs] -> 360 nM (1 of 6 replicates)
* MLSQMTGLGMKASNSVA / QASMRFE / QQYHRLPLI [En_Gen] -> 20 nM (6 of 6 replicates)
* KFEQQDLYSSRNKNSVA / NASTRSQ / QQYHRLPLS [GP_Gibbs] -> 600 pM (6 of 6 replicates)
* KVPQSMLYESRNANSVA / NASTRLE / QQYHRLPLS [GP_Gibbs] -> 500 pM (6 of 6 replicates)
* TLMQVGGYEMNAHNSIA / DLRTREE / QQYHRLPLS [En_HC] -> 6.2 nM (6 of 6 replicates)
* SISGFMKSLSAHINSVA / DMTNREE / QQYERLPLS [En_Gen] -> 7.0 nM (6 of 6 replicates)
* RLSASQGIQSVMRNSVA / QNSTREE / QQYDHLPLS [En_Gen] -> 230 nM (4 of 6 replicates)
* KLSMFYRVETRNKNSVA / DNSTRES / QDYDRLPLS [En_HC] -> 480 nM (1 of 6 replicates)
* KLLQVTENMSLHRNSVA / HMSTRED / QQYHRLPLS [En_HC] -> 13 nM (6 of 6 replicates)
* KISQAYLYESRNCNSVA / QANYRES / QQYHRLPLS [GP_Gibbs] -> 2.3 nM (6 of 6 replicates)

A selection of 6 entries from above:

* TISQSAQEESHNKNSVA / DLSVRGS / QQYHRLPLS [En_HC] -> 1.6 nM (6 of 6 replicates)
* KLTSVTGTEKVRGNNVA / EMETREE / QQYNRLPLS [En_Gen] -> 3.1 nM (5 of 6 replicates)
* TLMQVGGYEMNAHNSIA / DLRTREE / QQYHRLPLS [En_HC] -> 6.2 nM (6 of 6 replicates)
* KFEQQDLYSSRNKNSVA / NASTRSQ / QQYHRLPLS [GP_Gibbs] -> 600 pM (6 of 6 replicates)
* KLDQKNRWNGMANYNVA / DSNERVD / QQYHRLPLI [En_Gibbs] -> 7.1 nM (6 of 6 replicates)
* TISQVLNTLTRHGNNVA / DLAERED / QQYFRLPLS [En_Gen] -> 5.8 nM (6 of 6 replicates)